Earlier results as cited in patent publication US9682093B2, “Compositions and methods for treating or preventing metabolic syndrome disorders” (CHARLES R. DREW UNIVERSITY OF MEDICINE AND SCIENCE, priority 2012, dated 2017).

Target: androgen receptor
Conditions: cited from earlier work

CC(=O)Nc1ccc(OCC(C)(O)C(=O)Nc2ccc([N+](=O)[O-])c(C(F)(F)F)c2)cc1 (stereo not shown) [S-4]
Ki: 4 ± 0.7 nM
